Test results: PMC9834408, “The SPOC domain is a phosphoserine binding module that bridges transcription machinery with co- and post-transcriptional regulators” (Nature Communications, 2023)

Target: T1, RBM15 SPOC (Homo sapiens, UniProt Q96T37)
T1 construct: RBM15 SPOC (775–960 aa); His6 (N, cleaved yes); made in house; host or cells: E. coli Rosetta2 (DE3)
Assay: Fluorescence anisotropy binding of labeled peptides to RBM15 SPOC WT
Source text: To test whether SPOC domains are universal CTD binders and determine their binding specificity, we expressed and purified the SPOC domains of the human proteins PHF3, DIDO, SHARP, RBM15, and SPOCD1 and performed fluorescence anisotropy assays to measure their binding to Atto488-labeled CTD-diheptapeptides (Fig. 2, Supplementary Figs. 3–7). To obtain a comprehensive picture of SPOC-CTD interactions, we measured binding affinities for a total of eleven peptides that were either unphosphorylated (CTD) or phosphorylated in one (1×S2P, 1×S5P, 1×S7P, 1×Y1P, 1×T4P) or both repeats (2×S2P, 2×S5P, 2×S7P, 2×Y1P, 2×T4P) (Supplementary Table 2).
For mammalian expression, human DIDO3, SHARP, and RBM15 were amplified from HEK293T cDNA and cloned into CMV10 N3XFLAG (Sigma) by Gibson assembly (NEB). These constructs were used for cloning ΔSPOC truncations using Gibson assembly (NEB). CMV10 N3XFLAG-PHF3 and PHF3 ΔSPOC constructs were generated previously. NLS-SPOC constructs were cloned into CMV10 N3XFLAG (Sigma) between NotI and XbaI. NLS sequence ([…]) was introduced to ensure nuclear localization of the isolated SPOC domains. […] His6-PHF3 SPOC was generated previously. […]
Fluorescence anisotropy measurements were performed on a Perkin Elmer LS50 B fluorescence spectrometer operated by Perkin Elmar FL WinLab software (version 3.00). […] The grating factor was determined using unconjugated Atto-488 dye. […]

## FAM-MTNEEPLPKKVRLSETDFK [WTAP, FAM-labeled peptide of the first 19 N-terminal amino acids of WTAP, unphosphorylated]
  binding (in words): did not bind
